Laboratory results: PubChem BioAssay AID602281 (The Scripps Research Institute Molecular Screening Center, 2012)
This is a selection; strong and weak results do not stand in their true shares. Activity calls are given as the source filed them.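 Rule for the calls: active = inhibition above the mean inhibition across every tested compound plus 3 SD (cut at about 22% in these data); inactive = the rest.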

Protein sequences, listed by entry. Tags and fused reporters are not part of them.
UniProt Q00G26, whole entry, looked up: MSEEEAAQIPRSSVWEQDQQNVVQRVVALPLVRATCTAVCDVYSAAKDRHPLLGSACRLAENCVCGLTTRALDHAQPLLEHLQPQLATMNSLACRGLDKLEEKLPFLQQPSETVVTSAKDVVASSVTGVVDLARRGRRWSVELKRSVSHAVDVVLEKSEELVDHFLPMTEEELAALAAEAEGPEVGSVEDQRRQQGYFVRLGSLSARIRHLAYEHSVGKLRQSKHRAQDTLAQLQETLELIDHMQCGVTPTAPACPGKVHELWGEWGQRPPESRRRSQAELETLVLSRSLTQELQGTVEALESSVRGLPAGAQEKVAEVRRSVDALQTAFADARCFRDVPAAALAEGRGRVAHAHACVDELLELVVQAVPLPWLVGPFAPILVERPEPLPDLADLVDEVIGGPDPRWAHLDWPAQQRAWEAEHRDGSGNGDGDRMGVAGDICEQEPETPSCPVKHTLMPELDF
UniProt Q8WTS1, whole entry, looked up: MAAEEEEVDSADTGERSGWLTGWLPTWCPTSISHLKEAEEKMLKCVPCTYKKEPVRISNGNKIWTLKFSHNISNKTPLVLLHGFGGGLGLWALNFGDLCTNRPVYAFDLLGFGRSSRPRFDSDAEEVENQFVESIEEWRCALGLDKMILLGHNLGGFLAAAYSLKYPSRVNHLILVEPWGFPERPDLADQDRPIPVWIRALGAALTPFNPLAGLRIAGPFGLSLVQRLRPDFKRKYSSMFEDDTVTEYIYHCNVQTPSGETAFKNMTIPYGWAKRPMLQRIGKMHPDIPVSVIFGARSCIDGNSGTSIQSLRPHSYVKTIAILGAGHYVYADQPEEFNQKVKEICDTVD

Molecular target: Perilipin-5 (Homo sapiens) + 1-acylglycerol-3-phosphate O-acyltransferase ABHD5 (Homo sapiens) (UniProt Q00G26+Q8WTS1)
Assay: blockers of ABHD5 binding to perilipin-5 – cell lysate, split luciferase complementation, luminescence, primary screen (AID 602281);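 note: 0% = DMSO only wells and the 100% control is not disclosed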
Details: Split G. princeps luciferase complementation, 4 h, at 4 µM, stronger effect = higher value

Row | SMILES | inhibition
1 | C[C@@H]1C=CCP(=O)(Oc2ccccc2)O1 (some centres not stated) | inactive: -1.85%
2 | Cc1ccc(OCC(=O)OC2CN3CCC2CC3)cc1 (configuration not stated) | inactive: 2.42%
